## Permeability data for macrocyclic peptides

Values of Townsend et al. 2020, doi:10.26434/chemrxiv.13335941.v1, as listed in CycPeptMPDB.

PAMPA measures passive passage through an artificial lipid membrane.
Permeability is given as log10 of P in cm/s; higher (less negative) is more permeable.

PAMPA (log10 cm/s)	structure (SMILES)
-6.32	CC(C)C[C@@H]1NC(=O)[C@@H](C)N(C)C(=O)[C@@H]2CCCN2C(=O)[C@H](Cc2ccccc2)NC(=O)CN(Cc2ccccc2)C(=O)[C@@H]2CCCN2C(=O)[C@H](CC(C)C)NC1=O
-5.33	CC(C)C[C@@H]1C(=O)N[C@@H](Cc2ccccc2)C(=O)N[C@@H](Cc2ccccc2)CC(=O)N[C@H](CC(C)C)C(=O)N(C)[C@@H](CC(C)C)C(=O)N2CCC[C@H]2C(=O)N1C
-4.85	CC(C)C[C@@H]1C(=O)N2CCC[C@H]2C(=O)N[C@H](CC(C)C)C(=O)N[C@@H](Cc2ccccc2)C(=O)N(C)[C@@H](C)C(=O)N(C)[C@H](CC(C)C)C(=O)N1C
-6.18	CC(C)C[C@H]1NC(=O)[C@H](C)N(C)C(=O)[C@H]2CCCN2C(=O)[C@H](Cc2ccccc2)NC(=O)CN(Cc2ccccc2)C(=O)[C@@H]2CCCN2C(=O)[C@@H](CC(C)C)NC1=O
-5.49	CC(C)C[C@@H]1NC(=O)[C@@H](C)N(C)C(=O)[C@@H]2CCCN2C(=O)[C@H](Cc2ccccc2)NC(=O)[C@@H](CC(C)C)NC(=O)[C@H]2CCCN2C(=O)[C@@H](CC(C)C)N(C)C1=O
-4.82	CC(C)C[C@@H]1NC(=O)[C@@H](CC(C)C)NC(=O)[C@H](C)NC(=O)[C@H](Cc2ccccc2)NC(=O)[C@@H](CC(C)C)NC(=O)[C@H]2CCCN2C1=O
-5.75	CC(C)C[C@H]1NC(=O)[C@@H](C)N(C)C(=O)[C@H]2CCCN2C(=O)[C@H](Cc2ccccc2)NC(=O)[C@H](CC(C)C)N(C)C(=O)[C@@H]2CCCN2C(=O)[C@@H](CC(C)C)NC1=O
-5.20	CC(C)C[C@@H]1C(=O)N[C@@H](Cc2ccccc2)C(=O)N2CCC[C@@H]2C(=O)N(C)[C@H](C)C(=O)N[C@H](CC(C)C)C(=O)N(C)[C@@H](CC(C)C)C(=O)N2CCC[C@H]2C(=O)N1C
-5.30	CC(C)C[C@H]1NC(=O)[C@H]2CCCN2C(=O)CN(Cc2ccccc2)C(=O)[C@@H](CC(C)C)NC(=O)C[C@H](Cc2ccccc2)NC(=O)[C@H](Cc2ccccc2)NC1=O
-5.36	CC(C)C[C@@H]1C(=O)N[C@@H](Cc2ccccc2)C(=O)N[C@@H](Cc2ccccc2)CC(=O)N[C@H](CC(C)C)C(=O)N[C@H](CC(C)C)C(=O)N2CCC[C@H]2C(=O)N1C
-5.24	CC(C)C[C@H]1C(=O)N[C@@H](Cc2ccccc2)CC(=O)N2CCC[C@H]2C(=O)N(C)[C@@H](CC(C)C)C(=O)N[C@@H](Cc2ccccc2)C(=O)N[C@@H](C)C(=O)N1C
-5.62	CC(C)C[C@H]1NC(=O)[C@H](CC(C)C)N(C)C(=O)[C@@H](C)NC(=O)[C@@H]2CCCN2C(=O)[C@H](Cc2ccccc2)NC(=O)[C@H](CC(C)C)N(C)C(=O)[C@@H]2CCCN2C1=O
-6.11	CC(C)C[C@H]1NC(=O)[C@@H](C)N(C)C(=O)[C@H]2CCCN2C(=O)[C@H](Cc2ccccc2)NC(=O)CN(Cc2ccccc2)C(=O)[C@@H]2CCCN2C(=O)CN(Cc2ccccc2)C1=O
-5.83	CC(C)C[C@@H]1NC(=O)[C@H]2CCCN2C(=O)[C@H](CC(C)C)NC(=O)[C@@H](CC(C)C)N(C)C(=O)[C@H](C)N(C)C(=O)[C@@H]2CCCN2C(=O)[C@H](Cc2ccccc2)NC1=O
-5.86	CC(C)C[C@@H]1NC(=O)[C@@H]2CCCN2C(=O)[C@@H](CC(C)C)NC(=O)[C@@H](CC(C)C)N(C)C(=O)[C@@H](C)N(C)C(=O)[C@@H]2CCCN2C(=O)[C@H](Cc2ccccc2)NC1=O

The first 2 entries again:

structure (SMILES)	PAMPA (log10 cm/s)
CC(C)C[C@@H]1NC(=O)[C@@H](C)N(C)C(=O)[C@@H]2CCCN2C(=O)[C@H](Cc2ccccc2)NC(=O)CN(Cc2ccccc2)C(=O)[C@@H]2CCCN2C(=O)[C@H](CC(C)C)NC1=O	-6.32
CC(C)C[C@@H]1C(=O)N[C@@H](Cc2ccccc2)C(=O)N[C@@H](Cc2ccccc2)CC(=O)N[C@H](CC(C)C)C(=O)N(C)[C@@H](CC(C)C)C(=O)N2CCC[C@H]2C(=O)N1C	-5.33

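The data file gives no further conditions (lipid, pH, time, direction or concentration), and values from different papers need not be comparable. The list need not hold all peptides of the study. Entries at the database's floor value (log10 P of -10) are not listed.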